Target: T1, hSIRT1(229-516) (Homo sapiens, UniProt Q96EB6)
T1 sequence (Q96EB6 229-516): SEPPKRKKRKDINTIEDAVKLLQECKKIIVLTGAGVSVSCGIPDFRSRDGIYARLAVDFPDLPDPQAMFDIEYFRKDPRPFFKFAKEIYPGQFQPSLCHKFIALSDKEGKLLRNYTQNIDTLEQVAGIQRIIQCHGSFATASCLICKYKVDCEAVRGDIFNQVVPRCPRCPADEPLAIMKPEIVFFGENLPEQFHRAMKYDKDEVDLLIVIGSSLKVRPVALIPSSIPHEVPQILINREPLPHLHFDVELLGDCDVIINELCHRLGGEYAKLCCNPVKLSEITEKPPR
Test: Deacetylation assay of hSIRT1 catalytic core with CBS peptide (PNC1/GDH coupled assay)
Assay type: biochemical
Protocol: We also designed a minimal CBS fragment covering only the β-stranded region (642-658), which behaves similarly to the parental CBS peptide.
Final concentrations of the PNC1/GDH coupling system components used were 20 units/mL bovine GDH (Sigma-Aldrich), 1 uM yeast PNC1, 3.4 mM a-ketoglutarate, and 220 μM NADH or NADPH. An extinction coefficient of 6.22 mM^−1 cm^−1 and a pathlength of 0.81 cm was used to convert the absorbance at 340 nm to product concentration for the 150 uL reactions used. […] Quenched reactions were diluted 5-fold with 1:1 acetonitrile:methanol and spun at 5,000×g for 10 minutes to precipitate protein before being analyzed with an Agilent RapidFire 200 High-Throughput Mass Spectrometry System (Agilent, Wakefield. Mass.) coupled to an ABSciex API 4000 mass spectrometer fitted with an electrospray ionization source. The p53-based Ac-p53(W5) (Ac-RHKK^AcW-NH2) and FOXO-3a 21-mer (Ac-[…]^Ac[…]-NH2) peptides were obtained from Biopeptide, Inc. Deacetylation assays used the Ac-p53(W5) substrate unless otherwise noted.
Substrate KM determinations were performed by varying one substrate concentration at a fixed, saturating concentration of the second substrate. SIRT1 activation and inhibition assays were run in reaction buffer with 0.05% BSA at 25° C. and analyzed using the OAcADPr assay. Enzyme and compound were pre-incubated for 20 minutes before addition of substrates. […]

## CC[C@H](C)[C@H](NC(=O)[C@H](Cc1ccc(O)cc1)NC(=O)[C@H](CCCNC(=N)N)NC(=O)[C@H](CC(N)=O)NC(=O)[C@@H]1CCCN1C(=O)[C@@H]1CCCN1C(=O)[C@H](CC(C)C)NC(=O)[C@H](Cc1ccccc1)NC(=O)[C@H](CC(C)C)NC(=O)[C@H](Cc1ccc(O)cc1)NC(=O)[C@@H](N)CCC(N)=O)C(=O)N[C@@H](Cc1ccccc1)C(=O)N[C@@H](Cc1c[nH]cn1)C(=O)NCC(=O)N[C@@H](C)C(=O)N[C@@H](CCC(=O)O)C(=O)N[C@H](C(=O)N[C@@H](Cc1ccc(O)cc1)C(=O)N[C@@H](CO)C(=O)N[C@@H](CC(=O)O)C(=O)N[C@@H](CO)C(=O)N[C@@H](CCC(=O)O)C(=O)N[C@@H](CC(=O)O)C(=O)N[C@@H](CC(=O)O)C(=O)N[C@H](C(=O)O)C(C)C)C(C)C [CBS peptide]
  lowering of the KM values for peptide substrate and NAD+ of hSIRT1cc: 4-5 fold
hSIRT1cc, read-out: EC50 for restoring the catalytic activity of hSIRT1cc in trans
  EC50: 0.059 µM

Source: patent US9834558B2, “Substituted bridged urea analogs as sirtuin modulators” (GLAXOSMITHKLINE LLC, priority 2013, dated 2017)
